Biological target: T1, KPC-2 (Klebsiella pneumoniae, UniProt Q9F663)
T1 construct: purchased
Experiment: β-lactamase inhibition, Nitrocefin hydrolysis
Type: biochemical
Procedure: Nitrocefin, a kind of cephalosporin antibiotics, is sensitive to most of β-lactamases, and changes in color after being hydrolyzed. The hydrolysis rate of Nitrocefin was measured by real-time recording corresponding absorbance of reaction system. β-Lactamase inhibitors could inhibit hydrolysis of the enzymes to Nitrocefin, and reduce hydrolysis rate. By measuring reaction rates in the same reaction system under different inhibitor concentrations, the IC50 (half maximal inhibitory concentration) values of inhibitors were calculated.
Nitrocefin was dissolved in DMSO to form a solution with concentration of 2 mM, which was sub-packaged and stored at −20° C. The concentration of purchased β-lactamases mother liquor was 1 mg/mL, and the mother liquor was dissolved in 50% glycerol. A part of mother liquor was taken and diluted by 1000 times in reaction solution, sub-packaged and stored at ˜20° C.
The compounds to be tested were dissolved in DMSO to form a mother liquor with concentration of 10 mM. If not used that day, the mother liquor was stored at −20° C. Its test final concentrations were: 100 μM, 25 μM, 6.25 μM, 1.563 μM, 390.6 nM, 97.66 nM, 24.41 nM, 6.10 nM, 1.53 nM, 0.381 nM, 0.095 nM.

By UniProt entry, the sequences of proteins in these tests, tags left out. Residues count along the entry.
UniProt Q9F663, 25-293, looked up, species assumed: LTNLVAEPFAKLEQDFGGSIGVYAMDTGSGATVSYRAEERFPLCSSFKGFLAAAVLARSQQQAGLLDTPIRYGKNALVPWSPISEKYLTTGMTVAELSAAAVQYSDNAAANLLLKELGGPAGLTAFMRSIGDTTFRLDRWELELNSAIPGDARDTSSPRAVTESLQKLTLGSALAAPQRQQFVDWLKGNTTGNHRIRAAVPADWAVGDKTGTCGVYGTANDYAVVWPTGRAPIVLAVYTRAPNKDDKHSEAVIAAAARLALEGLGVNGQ

## O=C(NC1CCNCC1)[C@@H]1CC[C@@H]2CN1C(=O)N2OS(=O)(=O)O [MK-7655, reference compound]
  IC50: 120 nM
